Measurements as given in PubChem BioAssay AID2227 (Johns Hopkins Ion Channel Center, 2009).
The list shows a part of the results, in another mix than the full data. Active and inactive are the calls of the source.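 How the source made its calls: active means B-score of calcium response area above 5 SD of library B-scores, with initial fluorescence ratio within 5 SD of library; inactive means the rest.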

Chains of the proteins cited; added tags and fusions are not shown.
UniProt Q9QUQ5, whole entry: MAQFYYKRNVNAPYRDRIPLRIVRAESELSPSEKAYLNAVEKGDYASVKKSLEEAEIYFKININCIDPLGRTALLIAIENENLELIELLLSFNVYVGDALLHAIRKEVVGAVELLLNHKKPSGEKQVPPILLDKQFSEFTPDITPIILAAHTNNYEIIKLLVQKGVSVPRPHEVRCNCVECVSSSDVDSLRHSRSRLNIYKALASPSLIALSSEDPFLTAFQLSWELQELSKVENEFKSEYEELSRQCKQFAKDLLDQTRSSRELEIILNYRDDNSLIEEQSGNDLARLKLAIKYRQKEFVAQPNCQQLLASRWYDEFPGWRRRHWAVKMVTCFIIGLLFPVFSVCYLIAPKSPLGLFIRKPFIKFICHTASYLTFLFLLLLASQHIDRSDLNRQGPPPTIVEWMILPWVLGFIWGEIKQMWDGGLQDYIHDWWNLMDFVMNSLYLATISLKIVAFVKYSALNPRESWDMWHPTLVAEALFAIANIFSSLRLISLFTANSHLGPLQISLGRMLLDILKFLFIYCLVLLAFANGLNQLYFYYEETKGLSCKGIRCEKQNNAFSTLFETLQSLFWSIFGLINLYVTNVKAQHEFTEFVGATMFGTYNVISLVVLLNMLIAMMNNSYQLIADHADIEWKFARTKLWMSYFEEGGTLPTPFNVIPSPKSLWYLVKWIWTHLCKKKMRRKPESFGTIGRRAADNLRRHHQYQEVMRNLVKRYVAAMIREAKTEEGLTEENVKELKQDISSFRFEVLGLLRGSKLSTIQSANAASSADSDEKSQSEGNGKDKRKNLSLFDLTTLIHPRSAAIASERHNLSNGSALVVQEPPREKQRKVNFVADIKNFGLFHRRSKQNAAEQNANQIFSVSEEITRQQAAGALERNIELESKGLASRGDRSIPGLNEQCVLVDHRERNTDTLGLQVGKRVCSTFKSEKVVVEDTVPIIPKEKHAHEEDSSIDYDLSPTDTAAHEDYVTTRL

Molecular target: Short transient receptor potential channel 4 (Mus musculus) (UniProt Q9QUQ5)
Test: positive allosteric modulators of TRPC4, primary screen, cell-based, mouse TRPC4beta, HEK293 mu-opioid, Fluo-4 calcium (AID 2227);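 on B-score: B-score of integrated fluorescence ratio over time as area under calcium response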
Conditions: DAMGO EC20, Fluo-4 Ca2+ flux, at 10 µM; active compounds read high

Row | Compound | outcome | B-score
1 | O=[N+]([O-])c1ccc(O)c(/C=N/Nc2ccc([N+](=O)[O-])cc2[N+](=O)[O-])c1 | inactive | –
2 | O=C(OC1CN2CCC1CC2)c1cccc(Cl)c1 (stereo not drawn) | inactive | –
3 | C(Cc1nn[nH]n1)Cc1nn[nH]n1 | inactive | –
4 | Nc1ccc([As](=O)(O)c2ccc([N+](=O)[O-])cc2)cc1 | inactive | –
5 | Cc1nn(-c2ccccc2)c2c1P(=O)(N1CCOCC1)N(C)C(c1ccccc1)=N2 (stereo not drawn) | inactive | –
6 | Cc1ccc(C(=O)OC2CN3CCC2CC3)cc1 (stereo not drawn) | inactive | –
7 | CC1CCC(C(C)C)C(OP(=O)(Nc2ccccn2)c2ccccc2)C1 (stereo not drawn) | inactive | –
8 | COc1cc(C2NCCC3(OCCO3)C2(C)C)cc(OC)c1OC.O=[N+]([O-])c1cc([N+](=O)[O-])c(O)c([N+](=O)[O-])c1 (stereo not drawn) | inactive | –
9 | CN(C)C1(CNC(=O)c2ccc(S(C)(=O)=O)cc2)CCCCC1 | inactive | –
10 | O=[N+]([O-])c1cc([N+](=O)[O-])c(Nc2nnnn2CCO)c([N+](=O)[O-])c1 | inactive | –
11 | CCOC(=O)C(CC)C1=NC(C)(C)Cc2ccccc21.O=[N+]([O-])c1cc([N+](=O)[O-])c(O)c([N+](=O)[O-])c1 (stereo not drawn) | inactive | –
12 | O=C(/C=C/c1ccccc1)OC1CN2CCC1CC2 (stereo not drawn) | inactive | –
13 | CN1CCCCC1COC(=O)C1(O)c2ccccc2CCc2ccccc21 (stereo not drawn) | inactive | –
14 | COc1ccccc1OP(C)(=O)Nc1c(C)cccc1C (stereo not drawn) | inactive | –
15 | O=P1(Nc2ncccn2)COc2ccccc2OC1 | inactive | –
16 | CCCOc1ccc(NP(C)(=O)Oc2ccc(Cl)cc2)cc1 (stereo not drawn) | inactive | –
17 | Nc1cccc([As](=O)(O)c2ccccc2)c1 | inactive | –
18 | CP(=O)(Nc1ccc(SC(F)(F)F)cc1)Oc1ccccc1 (stereo not drawn) | inactive | –
19 | Cc1ccc(OCC(=O)OC2CN3CCC2CC3)cc1 (stereo not drawn) | inactive | –
20 | O=[As](O)(c1cccs1)c1cccs1 | inactive | –
21 | O=P1(Nc2ccc(Br)cn2)COc2ccccc2OC1 | inactive | –
22 | CCC1=CC2Cc3nc4ccc(Cl)cc4c(N)c3C(C1)C2 (stereo not drawn) | inactive | –
23 | O=P1(Nc2ccccn2)COc2ccccc2OC1 | inactive | –
24 | O=[N+]([O-])c1cc([N+](=O)[O-])c(-n2nnc3ccccc32)c([N+](=O)[O-])c1 | inactive | –

Row | Compound | outcome | B-score
25 | CCOP(=O)(NC(=NC(C)c1ccccc1)NC(C)c1ccccc1)OCC (stereo not drawn) | inactive | –
26 | CCOP(=O)(Nc1ccc(C)cn1)OCC | inactive | –
27 | CN(CCCl)Cc1cc(Cl)c(NC2=NCCN2)c(Cl)c1 | inactive | –
28 | Clc1n[nH]nc1-c1nn[nH][15n]1 | inactive | –
29 | CC(C)(C)C(=O)NC(Sc1ncccn1)C(Cl)(Cl)Cl (stereo not drawn) | inactive | –
30 | O=[N+]([O-])c1cc([N+](=O)[O-])c(-c2cnn(-c3ccccc3)c2)c([N+](=O)[O-])c1 | inactive | –
31 | COc1ccccc1CNC(=O)COC(=O)C(O)(c1ccccc1)c1ccccc1 | inactive | –
32 | CN(C(=O)Cc1ccc(Cl)c(Cl)c1)[C@@H]1CCCC[C@H]1N1CCCC1 | inactive | –
33 | CC(C)/C=N\N=C(\N)N[N+](=O)[O-] | inactive | –
34 | O=[As](O)(c1ccccc1Br)c1ccccc1Br | inactive | –
35 | CC1(CBr)Cn2c(nc3ccccc3c2=O)S1 (stereo not drawn) | inactive | –
36 | O=C(OC1CN2CCC1CC2)c1ccc(Cl)cc1 (stereo not drawn) | inactive | –
37 | O=[As](O)(O)c1cccnc1 | inactive | –
38 | COc1cc(C(=O)NCC2(N3CCOCC3)CCCCC2)cc(Cl)c1OC(C)C | inactive | –
39 | COc1ccccc1OP(C)(=O)Nc1cccc(Br)c1 (stereo not drawn) | inactive | –
40 | CS(=O)(=O)c1ccc(Cl)c(NC(=O)COC(=O)C(O)(c2ccccc2)c2ccccc2)c1 | inactive | –
41 | Cc1cccc(OCC(=O)OC2CN3CCC2CC3)c1 (stereo not drawn) | inactive | –
42 | O=[As](O)(c1cccc(O)c1)c1cccc(O)c1 | inactive | –
43 | Cc1cc(C)cc(OP(C)(=O)Nc2ccc(C)cc2C)c1 (stereo not drawn) | inactive | –
44 | CCOC(=O)c1ccc(NP(C)(=O)Oc2cc(C)cc(C)c2)cc1 (stereo not drawn) | inactive | –
45 | Cc1cc(C)cc(OP(C)(=O)Nc2ccccn2)c1 (stereo not drawn) | inactive | –
46 | CP(=O)(Nc1cccc(Br)c1)Oc1ccccc1 (stereo not drawn) | inactive | –
47 | Cc1ccc(NCCc2c([N+](=O)[O-])cc([N+](=O)[O-])cc2[N+](=O)[O-])cc1 | inactive | –
48 | Nc1cccc2c([As](=O)(O)O)cccc12 | inactive | –

Row | Compound | outcome | B-score
49 | Cc1ccc(C)c(NP(C)(=O)Oc2ccccc2)c1 (stereo not drawn) | inactive | –
50 | CCCOP(=S)(Nc1nc(N)cc(=O)[nH]1)OCCC | inactive | –
51 | CCOP(=O)(Nc1cccc2ccccc12)OCC | inactive | –
52 | O=C(O)c1cccc(Nc2c([N+](=O)[O-])cc([N+](=O)[O-])cc2[N+](=O)[O-])c1 | inactive | –
53 | CCOP1(=S)c2c(C)nn(CCC#N)c2N=C(c2ccccc2F)N1C (stereo not drawn) | inactive | –
54 | O=P(Nc1nccs1)(Oc1ccccc1)Oc1ccccc1 | inactive | –
55 | O=P(Nc1nccs1)(c1ccccc1)c1nc2ccccc2s1 (stereo not drawn) | inactive | –
56 | CS(=O)(=O)c1cc([N+](=O)[O-])c2no[n+]([O-])c2c1 | inactive | –
57 | O=C(O)COc1ccc([As](=O)(O)O)cc1[N+](=O)[O-] | inactive | –
58 | Nc1ccccc1[As](=O)(O)c1ccccc1 | inactive | –
59 | NC(=O)Nc1ccc([As](=O)(O)O)cc1 | inactive | –
60 | N#CCCN(C(=O)COC(=O)C(O)(c1ccccc1)c1ccccc1)c1ccc(F)cc1 | inactive | –
61 | CN(C(=O)Cc1ccccc1)[C@@H]1CC[C@]2(CCCO2)C[C@H]1N1CCCC1 | inactive | –
62 | CCOP1(=S)c2c(C)nn(CCC#N)c2N=C(c2ccc(F)cc2)N1C (stereo not drawn) | inactive | –
63 | O=[N+]([O-])c1ccc2c(c1)nnn2O | inactive | –
64 | CN(C)C(=O)c1cc([N+](=O)[O-])cc2c1-c1c(cc([N+](=O)[O-])cc1[N+](=O)[O-])C2=O | inactive | –
65 | CC1=NCCc2c1[nH]c1ccccc21.O=[N+]([O-])c1cc([N+](=O)[O-])c(O)c([N+](=O)[O-])c1 | inactive | –
66 | CN(C(=O)Cc1ccc(Cl)c(Cl)c1)[C@H]1CC[C@@]2(CCCO2)C[C@@H]1N1CCCC1 | inactive | –
67 | O=[N+]([O-])c1cc([N+](=O)[O-])c(Nc2cccnc2)c([N+](=O)[O-])c1 | inactive | –
68 | C[As](=O)(O)c1cccc(C(=O)O)c1 | inactive | –
69 | O=[As](O)(c1ccc(O)cc1)c1ccccc1O | inactive | –
70 | Cc1ccc(OP(=O)(Nc2ccc([N+](=O)[O-])cn2)Oc2ccc(C)cc2)cc1 | inactive | –
71 | CC(C)(C)c1ccc(OP(C)(=O)Nc2ccc(SC(F)(F)F)cc2)cc1 (stereo not drawn) | inactive | –
72 | Cc1cccc(C)c1OP(C)(N)=O (stereo not drawn) | inactive | –

Row | Compound | outcome | B-score
73 | O=[N+]([O-])c1ccc2c(c1)C=Nc1ccccc1O2 | inactive | –
74 | Cc1ccc2nc3c(c(C)c2c1)CC(C(Cl)Cl)S3 (stereo not drawn) | inactive | –
75 | CCOC(=O)c1ccc(NP(C)(=O)Oc2ccccc2)cc1 (stereo not drawn) | inactive | –
76 | ClCCSc1nnc(-c2cccnc2)o1 | inactive | –
77 | COc1ccccc1OP(C)(=O)Nc1ccc(C)cc1 (stereo not drawn) | inactive | –
78 | Cc1ccc(NP(C)(=O)Oc2ccccc2)c(C)c1 (stereo not drawn) | inactive | –
79 | CC(C)c1ccc(OP(=O)(Nc2ccccn2)Oc2ccccc2F)cc1 (stereo not drawn) | inactive | –
80 | CC(C)NC(=O)NP(=O)(Oc1ccccc1)Oc1ccccc1 | inactive | –
81 | COc1ccccc1OP(C)(=O)Nc1cc(Cl)ccc1C (stereo not drawn) | inactive | –
82 | CCN(CC)C(=S)SC(NC=O)C(Cl)(Cl)Cl (stereo not drawn) | inactive | –
83 | COc1ccc(OP(C)(=O)Nc2cccc(F)c2)cc1 (stereo not drawn) | inactive | –
84 | O=[N+]([O-])c1cc([N+](=O)[O-])c(-c2ccn[nH]2)s1 | inactive | –
85 | Cc1cc(C)cc(OP(C)(N)=O)c1 (stereo not drawn) | inactive | –
86 | Cc1c2c(nc3ccccc13)SC(C(Cl)Cl)C2 (stereo not drawn) | inactive | –
87 | O=C(OC1CN2CCC1CC2)C12CC3CC(CC(C3)C1)C2 (stereo not drawn) | inactive | –
88 | Cc1cc(=O)[nH]c(N[N+](=O)[O-])n1 | inactive | –
89 | CCN(CC)CCCOC(=O)C(O)(c1ccccc1)c1ccccc1 | – | active: 18
90 | COc1ccc2nc(NP(=O)(c3ccccc3)c3ccccc3)sc2c1 | inactive | –
91 | COc1cc(I)ccc1[As](=O)(O)O | inactive | –
92 | COc1ccc(N/C(=N/P(=O)(N2CCOCC2)N2CCOCC2)N2CCOCC2)cc1 | inactive | –
93 | COP1(=S)c2c(C)nn(CCC#N)c2N=C(c2ccc(F)cc2)N1C (stereo not drawn) | inactive | –
94 | CP(=O)(Nc1ccc(SC(F)(F)F)cc1)Oc1ccc(Cl)cc1 (stereo not drawn) | inactive | –
95 | Cc1cccc(C)c1OP(C)(=O)Nc1ccc(SC(F)(F)F)cc1 (stereo not drawn) | inactive | –
96 | CP(=O)(Oc1ccccc1)OC(c1ccccc1)C(F)(F)F (stereo not drawn) | inactive | –

Row | Compound | outcome | B-score
97 | CP(=O)(NC(=O)Nc1ccccc1)Oc1ccccc1 (stereo not drawn) | inactive | –
98 | O=C(COc1ccccc1)OC1CN2CCC1CC2 (stereo not drawn) | inactive | –
99 | CCc1ccc(OP(C)(=O)N2CCN(c3ccc([N+](=O)[O-])cc3)CC2)cc1 (stereo not drawn) | inactive | –
100 | O=C(Nc1ccncc1[N+](=O)[O-])c1ccc([N+](=O)[O-])cc1[N+](=O)[O-] | inactive | –
101 | Cc1cc(C)cc(OP(C)(=O)Nc2ccc(SC(F)(F)F)cc2)c1 (stereo not drawn) | inactive | –
102 | O=C(OC1CN2CCC1CC2)c1cccc([N+](=O)[O-])c1 (stereo not drawn) | inactive | –
103 | CCOP(C)(=S)SCC(=O)NC(C)C(=O)O (stereo not drawn) | inactive | –
104 | O=[N+]([O-])c1cc([N+](=O)[O-])c(O)c([N+](=O)[O-])c1.c1ccc(Oc2ccncc2)cc1 | inactive | –
105 | CCOC(=O)c1ccc(NC(=O)C(C)(CCl)SC)cc1 (stereo not drawn) | inactive | –
106 | CCOC(=O)c1ccc(NP(C)(=O)Oc2ccc(OC)cc2)cc1 (stereo not drawn) | inactive | –
107 | CCC(C)N(CC(C)C)C(=S)SC(NC(C)=O)C(Cl)(Cl)Cl (stereo not drawn) | inactive | –
108 | CP(=O)(Nc1ccccn1)Oc1ccc(Cl)cc1 (stereo not drawn) | inactive | –
109 | CCOC(=O)Nc1ccc([As](=O)(O)O)c(O)c1 | inactive | –
110 | CCCCOc1ccc(C(=O)NCC2(N3CCCCC3)CCCCC2)cc1OC | inactive | –
111 | Cc1cc(SC(NC(=O)c2ccccc2)C(Cl)(Cl)Cl)nc(C(C)C)n1 (stereo not drawn) | inactive | –
112 | CP(=S)(Nn1cnnc1)Oc1ccccc1 (stereo not drawn) | inactive | –
113 | CCOC(=O)Nc1cccc([As](=O)(O)O)c1 | inactive | –
114 | Cc1cc(SC(NC=O)C(Cl)(Cl)Cl)ncn1 (stereo not drawn) | inactive | –
115 | O=P(Nc1ccccn1)(c1cccc2ccccc12)c1cccc2ccccc12 | inactive | –
116 | COc1ccccc1OP(C)(=O)Nc1ccccc1 (stereo not drawn) | inactive | –
117 | CP(=O)(Nc1ccccc1Br)Oc1ccccc1 (stereo not drawn) | inactive | –
118 | O=[N+]([O-])c1ccc(Nc2ccc(Oc3ccc([N+](=O)[O-])cc3[N+](=O)[O-])cc2)c([N+](=O)[O-])c1 | inactive | –
